Data: ChEMBL document CHEMBL4229329, “Design of Small-Molecule Active-Site Inhibitors of the S1A Family Proteases as Procoagulant and Anticoagulant Drugs” (J Med Chem, 2018)

Species on record: Homo sapiens
Test: Selectivity ratio of IC50 for human thrombin to IC50 for human TF/F7a

`CCS(=O)(=O)N[C@H](Cc1ccc(-c2ccccc2)cc1)C(=O)N[C@@H](CCC(N)=O)C(=O)NCc1ccc(C(=N)N)cc1` was tested, and the Ratio IC50 was > 100.
